Data from publication PMC5700923, “Second messenger analogues highlight unexpected substrate sensitivity of CD38: total synthesis of the hybrid “L-cyclic inosine 5′-diphosphate ribose”” (Scientific Reports, 2017).

Amino acid sequences for entries named in this document (tags omitted). Residues count along the entry.
UniProt P28907, 45-300 limits assumed: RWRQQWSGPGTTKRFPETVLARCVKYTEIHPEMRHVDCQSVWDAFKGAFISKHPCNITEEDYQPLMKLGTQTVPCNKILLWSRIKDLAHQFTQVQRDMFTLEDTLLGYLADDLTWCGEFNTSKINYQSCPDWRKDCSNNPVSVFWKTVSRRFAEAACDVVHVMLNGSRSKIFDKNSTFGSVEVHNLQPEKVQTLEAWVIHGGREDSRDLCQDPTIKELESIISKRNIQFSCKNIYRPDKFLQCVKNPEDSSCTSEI

Biological target: T1, CD38 (shCD38) (Homo sapiens, UniProt P28907)
T1 construct: human CD38 catalytic domain (shCD38)
Assay: inhibition of cADPR hydrolysis, fluorimetric cycling assay
Assay type: biochemical
Details: read-out: L-Ribose / IC50

O=c1c2nc(Br)n3c2ncn1[C@H]1O[C@@H](COP(=O)(O)OP(=O)(O)OC[C@H]2O[C@@H]3[C@H](O)[C@@H]2O)[C@H](O)[C@@H]1O [compound 6, 8-Br-L-cIDPR]
IC50: 7 ± 1 µM
